For this experiment, the target named is Human Kappa-opioid (κO) receptor (Homo sapiens, UniProt P41145). Kind of experiment: Membrane potential assay in κOR-CHO cells. Type of experiment: cell-based. Particulars: control κO receptor cell lines.

Protein sequences, listed by entry. Tags and fused reporters are not part of them. Lines headed by an entry give the natural chain unless they say otherwise; changes in a name come on top.
UniProt P41145: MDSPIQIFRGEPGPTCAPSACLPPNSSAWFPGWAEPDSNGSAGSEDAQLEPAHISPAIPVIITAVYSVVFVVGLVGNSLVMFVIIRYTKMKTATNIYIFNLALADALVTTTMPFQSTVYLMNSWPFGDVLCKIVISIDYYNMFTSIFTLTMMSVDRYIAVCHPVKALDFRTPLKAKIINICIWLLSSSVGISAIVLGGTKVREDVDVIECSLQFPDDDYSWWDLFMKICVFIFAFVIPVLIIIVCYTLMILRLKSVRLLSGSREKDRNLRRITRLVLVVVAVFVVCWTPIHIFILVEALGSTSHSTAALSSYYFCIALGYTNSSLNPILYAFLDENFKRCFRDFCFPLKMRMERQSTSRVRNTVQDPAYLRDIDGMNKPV

In the case of “Dynorphin A (1–13) amide [DynorphinA1-13-NH2]”, the hyperpolarizing response entry is reported as “robust hyperpolarizing response”.
